Test [1] addresses T1, ^FAMCENP-C^1–71, Q03188.
T1 chain: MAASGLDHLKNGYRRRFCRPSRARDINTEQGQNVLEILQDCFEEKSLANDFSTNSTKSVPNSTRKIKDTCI
Put plainly: analytical SEC (495 nm absorbance of FAM-CENP-C1-71 co-eluting with MIS12C). As to conditions: chain shown with the change; height of the 495 nm peak at the MIS12C elution volume (about 1.5 ml); read off a plot.

For test [2], the target named is T2, ^FAMCENP-C^1–21, Q03188.
T2 chain: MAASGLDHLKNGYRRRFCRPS
In words: fluorescence polarisation. As to conditions: chain shown with the change; FAM-CENP-C1-21 peptide at 20 nM; value at the highest MIS12C concentration (about 25 µM, estimated); parent: est. 170; read off a plot.

The target of test [3] is T3, ^FAMCENP-C^1–21 (human), Q03188.
T3 chain: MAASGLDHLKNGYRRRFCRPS
Put plainly: fluorescence polarisation; 20 nM 5-FAM CENP-C^1-21 peptide with increasing MIS12C variant (1.28 pM-30 μM), 20 mM Tris-HCl pH 8, 150 mM NaCl, 1 mM TCEP, measured at 30°C at equilibrium. In general terms: In fluorescence polarisation assays a small probe gives low polarisation when free and higher when bound to something large.

The term Kd denotes the free concentration of one partner at which half of the binding sites on the other are occupied at equilibrium, for simple one-to-one binding. Read a high Kd as a looser complex.

B1: MIS12C^Nano, Q9H081;Q6P1K2;Q96IY1;Q9H410 MIS12:D30A; MIS12:E34A (protein)
chain 1: MSVDPMTYEAQFFGFTPQTCMLRIYIAFQAYLFAVMQAVEQVILKKLDGIPDCDISPVQIRKCTEKFLCFMKGHFDNLFSKMEQLFLQLILRIPSNILLPEDKCKETPYSEEDFQHLQKEIEQLQEKYKTELCTKQALLAELEEQKIVQAKLKQTLTFFDELHNVGRDHGTSDFRESLVSLVQNSRKLQNIRDNVEKESKRLKIS
chain 2: TISRVKLLDTMVDTFLQKLVAAGSYQRFTDCYKCFYQLQPAMTQQIYDKFIAQLQTSIREEISDIKEEGNLEAVLNALDKIVEEGKVRKEPAWRPSGIPEKDLHSVMAPYFLQQRDTLRRHVQKQEAENQQLADAVLAGRRQVEELQLQVQAQQQAWQALHREQRELVAVLREPE
chain 3: MAGSPELVVLDPPWDKELAAGTESQALVSATPREDFRVRCTSKRAVTEMLQLCGRFVQKLGDALPEEIREPALRDAQWTFESAVQENISINGQAWQEASDNCFMDSDIKVLEDQFDEIIVDIATKRKQYPRKILECVIKTIKAKQEILKQYHPVVHPLDLKYDPDPAPHMENLKCRGETVAKEISEAMKSLPALIEQGEGFSQVLRMQPVIHLQRIHQEVFSSCHRKPDAKPENFITQIETTPTETASRKTSDMVLKRKQTKDCPQRKWYPLRPKKINLDT
chain 4: SHQERLQSKSLHLSPQEQSASYQDRRQSWRRASMKETNRRKSLHPIHQGITELSRSISVDLAESKRLGCLLLSSFQFSIQKLEPFLRDTKGFSLESFRAKASSLSEELKHFADGLETDGTLQKCFEDSNGKASDFSLEASVAEMKEYITKFSLERQTWDQLLLHYQQEAKEILSRGSTEAKITEVKVEPMTYLGSSQNEVLNTKPDYQKILQNQSKVFDCMELVMDELQGSVKQLQAFMDESTQCFQKVSVQLGKRSMQQLDPSPARKLLKLQLQNPPAIHGSGSGSCQ
In the case of B1, the response in test [1] was 4.7 AU.

B2: MIS12C^Nano, Q9H081;Q6P1K2;Q96IY1;Q9H410 MIS12:D30A; MIS12:E34A; MIS12:E65A; MIS12:D76A (protein)
chain 1: MSVDPMTYEAQFFGFTPQTCMLRIYIAFQAYLFAVMQAVEQVILKKLDGIPDCDISPVQIRKCTAKFLCFMKGHFANLFSKMEQLFLQLILRIPSNILLPEDKCKETPYSEEDFQHLQKEIEQLQEKYKTELCTKQALLAELEEQKIVQAKLKQTLTFFDELHNVGRDHGTSDFRESLVSLVQNSRKLQNIRDNVEKESKRLKIS
chain 2: TISRVKLLDTMVDTFLQKLVAAGSYQRFTDCYKCFYQLQPAMTQQIYDKFIAQLQTSIREEISDIKEEGNLEAVLNALDKIVEEGKVRKEPAWRPSGIPEKDLHSVMAPYFLQQRDTLRRHVQKQEAENQQLADAVLAGRRQVEELQLQVQAQQQAWQALHREQRELVAVLREPE
chain 3: MAGSPELVVLDPPWDKELAAGTESQALVSATPREDFRVRCTSKRAVTEMLQLCGRFVQKLGDALPEEIREPALRDAQWTFESAVQENISINGQAWQEASDNCFMDSDIKVLEDQFDEIIVDIATKRKQYPRKILECVIKTIKAKQEILKQYHPVVHPLDLKYDPDPAPHMENLKCRGETVAKEISEAMKSLPALIEQGEGFSQVLRMQPVIHLQRIHQEVFSSCHRKPDAKPENFITQIETTPTETASRKTSDMVLKRKQTKDCPQRKWYPLRPKKINLDT
chain 4: SHQERLQSKSLHLSPQEQSASYQDRRQSWRRASMKETNRRKSLHPIHQGITELSRSISVDLAESKRLGCLLLSSFQFSIQKLEPFLRDTKGFSLESFRAKASSLSEELKHFADGLETDGTLQKCFEDSNGKASDFSLEASVAEMKEYITKFSLERQTWDQLLLHYQQEAKEILSRGSTEAKITEVKVEPMTYLGSSQNEVLNTKPDYQKILQNQSKVFDCMELVMDELQGSVKQLQAFMDESTQCFQKVSVQLGKRSMQQLDPSPARKLLKLQLQNPPAIHGSGSGSCQ
For the molecule B2, in test [1], the response was 1.6 AU.

B3: MIS12C^Nano, Q9H081;Q6P1K2;Q96IY1;Q9H410 NSL1:D105A; NSL1:E112A; NSL1:D113A (protein)
chain 1: MSVDPMTYEAQFFGFTPQTCMLRIYIAFQDYLFEVMQAVEQVILKKLDGIPDCDISPVQIRKCTEKFLCFMKGHFDNLFSKMEQLFLQLILRIPSNILLPEDKCKETPYSEEDFQHLQKEIEQLQEKYKTELCTKQALLAELEEQKIVQAKLKQTLTFFDELHNVGRDHGTSDFRESLVSLVQNSRKLQNIRDNVEKESKRLKIS
chain 2: TISRVKLLDTMVDTFLQKLVAAGSYQRFTDCYKCFYQLQPAMTQQIYDKFIAQLQTSIREEISDIKEEGNLEAVLNALDKIVEEGKVRKEPAWRPSGIPEKDLHSVMAPYFLQQRDTLRRHVQKQEAENQQLADAVLAGRRQVEELQLQVQAQQQAWQALHREQRELVAVLREPE
chain 3: MAGSPELVVLDPPWDKELAAGTESQALVSATPREDFRVRCTSKRAVTEMLQLCGRFVQKLGDALPEEIREPALRDAQWTFESAVQENISINGQAWQEASDNCFMASDIKVLAAQFDEIIVDIATKRKQYPRKILECVIKTIKAKQEILKQYHPVVHPLDLKYDPDPAPHMENLKCRGETVAKEISEAMKSLPALIEQGEGFSQVLRMQPVIHLQRIHQEVFSSCHRKPDAKPENFITQIETTPTETASRKTSDMVLKRKQTKDCPQRKWYPLRPKKINLDT
chain 4: SHQERLQSKSLHLSPQEQSASYQDRRQSWRRASMKETNRRKSLHPIHQGITELSRSISVDLAESKRLGCLLLSSFQFSIQKLEPFLRDTKGFSLESFRAKASSLSEELKHFADGLETDGTLQKCFEDSNGKASDFSLEASVAEMKEYITKFSLERQTWDQLLLHYQQEAKEILSRGSTEAKITEVKVEPMTYLGSSQNEVLNTKPDYQKILQNQSKVFDCMELVMDELQGSVKQLQAFMDESTQCFQKVSVQLGKRSMQQLDPSPARKLLKLQLQNPPAIHGSGSGSCQ
On to B3, for which, in test [2], the response (Polarization (x10^3)) was 100.

B4: MIS12C^Nano, Q9H081;Q6P1K2;Q96IY1;Q9H410 MIS12:Y8A; MIS12:F12A; MIS12:F13A (protein)
chain 1: MSVDPMTAEAQAAGFTPQTCMLRIYIAFQDYLFEVMQAVEQVILKKLDGIPDCDISPVQIRKCTEKFLCFMKGHFDNLFSKMEQLFLQLILRIPSNILLPEDKCKETPYSEEDFQHLQKEIEQLQEKYKTELCTKQALLAELEEQKIVQAKLKQTLTFFDELHNVGRDHGTSDFRESLVSLVQNSRKLQNIRDNVEKESKRLKIS
chain 2: TISRVKLLDTMVDTFLQKLVAAGSYQRFTDCYKCFYQLQPAMTQQIYDKFIAQLQTSIREEISDIKEEGNLEAVLNALDKIVEEGKVRKEPAWRPSGIPEKDLHSVMAPYFLQQRDTLRRHVQKQEAENQQLADAVLAGRRQVEELQLQVQAQQQAWQALHREQRELVAVLREPE
chain 3: MAGSPELVVLDPPWDKELAAGTESQALVSATPREDFRVRCTSKRAVTEMLQLCGRFVQKLGDALPEEIREPALRDAQWTFESAVQENISINGQAWQEASDNCFMDSDIKVLEDQFDEIIVDIATKRKQYPRKILECVIKTIKAKQEILKQYHPVVHPLDLKYDPDPAPHMENLKCRGETVAKEISEAMKSLPALIEQGEGFSQVLRMQPVIHLQRIHQEVFSSCHRKPDAKPENFITQIETTPTETASRKTSDMVLKRKQTKDCPQRKWYPLRPKKINLDT
chain 4: SHQERLQSKSLHLSPQEQSASYQDRRQSWRRASMKETNRRKSLHPIHQGITELSRSISVDLAESKRLGCLLLSSFQFSIQKLEPFLRDTKGFSLESFRAKASSLSEELKHFADGLETDGTLQKCFEDSNGKASDFSLEASVAEMKEYITKFSLERQTWDQLLLHYQQEAKEILSRGSTEAKITEVKVEPMTYLGSSQNEVLNTKPDYQKILQNQSKVFDCMELVMDELQGSVKQLQAFMDESTQCFQKVSVQLGKRSMQQLDPSPARKLLKLQLQNPPAIHGSGSGSCQ
B4: the response (Polarization (x10^3)) in test [2] was 140.

B5: MIS12C^ΔHead2, Q9H081 1-205; Q6P1K2 31-205; Q96IY1 1-281; Q9H410 1-356 (complex)
chain 1: MSVDPMTYEAQFFGFTPQTCMLRIYIAFQDYLFEVMQAVEQVILKKLDGIPDCDISPVQIRKCTEKFLCFMKGHFDNLFSKMEQLFLQLILRIPSNILLPEDKCKETPYSEEDFQHLQKEIEQLQEKYKTELCTKQALLAELEEQKIVQAKLKQTLTFFDELHNVGRDHGTSDFRESLVSLVQNSRKLQNIRDNVEKESKRLKIS
chain 2: TISRVKLLDTMVDTFLQKLVAAGSYQRFTDCYKCFYQLQPAMTQQIYDKFIAQLQTSIREEISDIKEEGNLEAVLNALDKIVEEGKVRKEPAWRPSGIPEKDLHSVMAPYFLQQRDTLRRHVQKQEAENQQLADAVLAGRRQVEELQLQVQAQQQAWQALHREQRELVAVLREPE
chain 3: GTLQKCFEDSNGKASDFSLEASVAEMKEYITKFSLERQTWDQLLLHYQQEAKEILSRGSTEAKITEVKVEPMTYLGSSQNEVLNTKPDYQKILQNQSKVFDCMELVMDELQGSVKQLQAFMDESTQCFQKVSVQLGKRSMQQLDPSPARKLLKLQLQNPPAIHGSGSGSCQ
chain 4: GQAWQEASDNCFMDSDIKVLEDQFDEIIVDIATKRKQYPRKILECVIKTIKAKQEILKQYHPVVHPLDLKYDPDPAPHMENLKCRGETVAKEISEAMKSLPALIEQGEGFSQVLR
modifications: not checked
In test [3], B5 registered a Kd of 2.2 nM.

The values are drawn from article PMC5101189, “Structure of the MIS12 Complex and Molecular Basis of Its Interaction with CENP-C at Human Kinetochores” (Cell, 2016).
